Test results: PubChem BioAssay AID720534 (National Center for Advancing Translational Sciences (NCATS), 2013)
This is a selection; strong and weak results do not stand in their true shares. Records with an inconclusive call do not appear. The source made the active and inactive calls. Calls follow the shape of the dose curve; as a rule, active = well fitted inhibition curve with a large enough effect; inconclusive = small, poorly fitted or top-dose-only effect; inactive = no such curve, though single readings can be large or run the other way.

Assay: qHTS for Inhibitors of TGF-b: Confirmation of Cherry Picks; also: nearly all actives have a fitted effect of over 65% in size
Conditions: HepG2 CAGA-GFP TGF-b reporter, GFP fluorescence, 18 h; cells stimulated with TGF-beta, 500 pg/mL
From the text: TGF-b is a main component in the TGF-b signaling pathway which plays diverse roles in cellular and development pathways. TGF-b is mediated through transcription factors called "Smads". Although the Smad-dependent pathway is the primary canonical TGF-b signaling mode, TGF-b1 can also activate alternative signaling pathways, including those involving MAPK (ERK, JNK and p38). This interaction may mediate or enhance Smad-dependent responses, or can exert Smad-independent effects. The complexity of this signaling cascade allows the TGF-b superfamily to perform unique, overlapping or redundant functions. […] We aim to identify Smad3-small molecule antagonists using a quantitative high throughput screening (qHTS) approach. […]
Suspensions of trypsinized HEPG2 CAGA-GFP cells were dispensed into white, tissue culture-treated, solid 1536-well plates at 5uL/well (1000 cells/well final concentration) in DMEM medium supplemented with 1% FBS. […] The plates were measured on an Acumen eX3 Explorer plate reader for GFP fluorescence (ex488/em500-530). GFP values were calculated by determining the mean GFP fluorescence of individual cells, and compiling these values for each well to determine a total well GFP signal. The %Activity was determined from the corrected fluorescence values. […] Concentration-response curves were fitted to the signals arising from the resulting fluorescence. […]
Potency is read from the fitted curve at half-maximal effect.

| Structure (SMILES) | Potency |
| --- | --- |
| O=c1c2cc([N+](=O)[O-])ccc2[nH]c2c([N+](=O)[O-])cc([N+](=O)[O-])cc12 | active: 580 nM |
